Assays:
[1] = molecular target: T1, human A2B adenosine receptors (Homo sapiens, UniProt P29275); assay: cAMP accumulation in HEK-293 cells expressing A2B adenosine receptors; format: cell-based; conditions: up to 100 μM
T1 construct: expressed in transfected cells
T1 sequence (P29275 1-332): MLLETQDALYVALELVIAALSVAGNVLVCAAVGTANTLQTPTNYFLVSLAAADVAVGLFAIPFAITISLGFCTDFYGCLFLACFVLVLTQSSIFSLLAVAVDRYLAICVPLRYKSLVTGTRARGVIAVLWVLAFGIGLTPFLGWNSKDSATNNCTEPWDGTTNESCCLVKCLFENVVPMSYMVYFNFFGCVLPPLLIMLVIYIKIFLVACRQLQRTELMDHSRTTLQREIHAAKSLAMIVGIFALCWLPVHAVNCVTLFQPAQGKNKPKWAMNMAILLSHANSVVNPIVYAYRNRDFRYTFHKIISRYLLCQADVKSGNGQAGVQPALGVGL
Protocol: FIG. 4. […] Cyclic AMP levels were determined as described under “Methods”. Values represent mean±SEM of triplicate samples from three experiments.
HEK-293 cells stabily expressing recombinant human A2B adenosine receptors (HEK-hA2B adenosine receptors) were grown in DMEM supplemented with 10% fetal bovine serum and 0.5 mg/mL G-418.
Briefly, PC12 cells were rinsed three times with Hanks' balanced saline solution (HBSS), detached using a cell lifter, and pelleted by centrifugation at 500 g for 5 minutes. Aliquots of the cell suspension (0.1 to 0.2 mg protein) were placed in microfuge tubes with 250 μL of HBSS containing rolipram (50 μmol/L) to inhibit phosphodiesterases that degrade cAMP_and warmed to 37° C. […]
The cAMP content of the supernatant was determined by modification of a radioimmunoassay method described by Harper and Brooker (1975. J. Cyclic nucleotide Res 1:207). […] Antibody-bound radioactivity adsorbed to hydroxyapatite was collected onto glass fiber filters by vacuum filtration using a Brandel cell harvester. Radioactivity retained by the filter was counted in a gamma counter. Nonspecific binding of [^125I]ScAMP-TME was defined as radioactivity bound in the presence of 3 μmol/L unlabeled cAMP and was subtracted from total binding. The amount of cAMP present in samples was calculated based on a standard curve using known amounts of cAMP.

Amino acid sequences for entries named in this document (tags omitted). A change or cut given only in a name is not applied to a line headed by its entry.
UniProt P30543, whole entry: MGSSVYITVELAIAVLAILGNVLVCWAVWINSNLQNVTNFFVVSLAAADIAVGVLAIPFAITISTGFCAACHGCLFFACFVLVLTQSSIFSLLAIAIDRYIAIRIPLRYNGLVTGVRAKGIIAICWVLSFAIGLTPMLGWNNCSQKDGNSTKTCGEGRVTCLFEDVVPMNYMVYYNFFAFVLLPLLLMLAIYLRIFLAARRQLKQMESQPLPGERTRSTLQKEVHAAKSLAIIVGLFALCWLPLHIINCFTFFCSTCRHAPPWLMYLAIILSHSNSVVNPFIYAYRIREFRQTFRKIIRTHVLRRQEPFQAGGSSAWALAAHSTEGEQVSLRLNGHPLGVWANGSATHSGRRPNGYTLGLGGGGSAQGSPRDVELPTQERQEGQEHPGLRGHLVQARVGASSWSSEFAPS

[2] = molecular target: A2A adenosine receptors (Rattus norvegicus, UniProt P30543); assay: Competitive radioligand binding, [3H]ZM241385, PC12 cell membranes
[3] = molecular target: A2A adenosine receptors (PC12 cells) (Rattus norvegicus, UniProt P30543); assay: Rate of decline of agonist-stimulated cAMP in PC12 cells after A2A antagonist SCH58261; conditions: agonist 1 μM, after addition of SCH58261 (20 μM)

| Structure (SMILES) | effect on cellular cAMP content [1] | pKi ± SEM, PC12 cells (A2A) [2] | Ki ([2]; read-out: Ki, PC12 cells (A2A)) [µM] | t0.5, rate of decline of cAMP accumulated [3] [min] |
| --- | --- | --- | --- | --- |
| CCNC(=O)[C@H]1O[C@@H](n2cnc3c(N)ncnc32)[C@H](O)[C@@H]1O [NECA, N-ethylcarboxamido-adenosine, reference compound] | concentration-dependent increase of cellular cAMP content |  |  |  |
| C[C@H](Cc1ccccc1)Nc1ncnc2c1ncn2[C@@H]1O[C@H](CO)[C@@H](O)[C@H]1O [R-PIA, Phenylisopropyladenosine, reference compound] |  | 5.48 ± 0.10 | 3.48 | 1.6 ± 0.2 |
